Earlier results as cited in patent publication EP3760204A1, “MEDICAMENT FOR PREVENTION OR TREATMENT OF HUNTINGTON'S DISEASE” (Medizinische Universität Graz, priority 2019, dated 2021).

Details: mouse brain, Keller et al.; cited from earlier work

hyperforin
passage of the blood-brain-barrier: readily pass the blood-brain-barrier
